{
  "source": "paper PMC12786078",
  "about": "“Identification of Novel JAK2 Inhibitors from Amino Derivatives of Epoxyalantolactone: In Silico and In Vitro Studies” (International Journal of Molecular Sciences, 2025)",
  "tested_on": "HeLa cells",
  "assay": "Annexin V-FITC/PI apoptosis detection by flow cytometry",
  "details": "48 h, at IC50 (SL10 8 µM, SL35 6 µM, ruxolitinib 25 µM)",
  "data": [
    {"smiles": "N#CC[C@H](C1CCCC1)n1cc(-c2ncnc3[nH]ccc23)cn1", "note": "[Ruxolitinib, reference compound]", "values": [
      {"measurement": "early apoptosis", "result": "22.65 ± 2.71", "unit": "%"},
      {"measurement": "late apoptosis", "result": "10.61 ± 0.40", "unit": "%"}
    ]}
  ]
}
